Laboratory results: ChEMBL document CHEMBL1201862, “PubChem BioAssay data set” (2004)
This is one part of the list. These assays gave more results; the selection is not random. Calls of active or inactive are those of the source. No cut-off for these calls is given here.

These compounds were tested against Guanine nucleotide-binding protein G(s) subunit alpha isoforms short (Homo sapiens) (UniProt P63092) (assay: qHTS for Agonist of gsp, the Etiologic Mutation Responsible for Fibrous Dysplasia/McCune-Albright Syndrome: qHTS.).
Type: functional

| Structure (SMILES) | Potency |
| --- | --- |
| Cc1ccc(OP(=O)(Nc2ccc([N+](=O)[O-])cn2)Oc2ccc(C)cc2)cc1 | inactive |
| Cc1cc(O)nc(N[N+](=O)[O-])n1 | inactive |
| O=P1(Nc2nc3ccc(Cl)cc3s2)COc2ccccc2O1 (stereo not given) | inactive |
| COC(=O)C1(C)COP(=O)(N2CCCCCC2)OC1 (stereo not given) | inactive |
| COC(=O)C1(C)COP(=O)(NCc2ccccc2)OC1 (stereo not given) | inactive |
| COc1ccccc1CNC(=O)COC(=O)C(O)(c1ccccc1)c1ccccc1 | inactive |
| CC(NC(=O)COC(=O)C(O)(c1ccccc1)c1ccccc1)c1ccccc1 (stereo not given) | inactive |
| CCC(=O)N1C2C3N(C(=O)CC)C1C1N(C(=O)CC)C(C(N1C(=O)CC)N3C(=O)CC)N2C(=O)CC | inactive |
| C[As](=O)(O)c1cccc(C(=O)O)c1 | inactive |
| CCOP(=O)(NC(=NC(C)c1ccccc1)NC(C)c1ccccc1)OCC (stereo not given) | inactive |
| Cc1ccc(S(=O)(=O)NCCCCC(NC(=O)OC(C)(C)C)C(=O)O)cc1.c1ccc(Nc2ccccc2)cc1 (stereo not given) | inactive |
| Cc1cc(SC(NC(=O)c2ccccc2)C(Cl)(Cl)Cl)nc(C(C)C)n1 (stereo not given) | inactive |
| CCC(=O)N(c1ccccc1)C1CCCCC1 | inactive |
| CCOP(=O)(Nc1ccccc1)OCC | inactive |
| Cc1ccc(C(=O)OC2CN3CCC2CC3)cc1 (stereo not given) | inactive |
| CCC(C)N(CC(C)C)C(=S)SC(NC(C)=O)C(Cl)(Cl)Cl (stereo not given) | inactive |
| N#C/C(=C\c1ccc(N(CCBr)CCBr)cc1)C(N)=O | inactive |
| O=C(OC1CN2CCC1CC2)c1cccc(Cl)c1 (stereo not given) | inactive |
| O=C(O)COc1ccc([As](=O)(O)O)cc1[N+](=O)[O-] | inactive |
| O=C(OC1CN2CCC1CC2)c1ccc([N+](=O)[O-])cc1 (stereo not given) | inactive |
| O=P1(N(CCCl)CCCl)Nc2ccccc2N1 | inactive |
| CN(C)P(=O)(N(C)C)n1c(Nc2ccccc2)nnc1-c1ccccc1 | inactive |
| Cc1ccc(OCC(=O)OC2CN3CCC2CC3)cc1 (stereo not given) | inactive |
| O=[N+]([O-])c1cc([N+](=O)[O-])c(-c2cc[nH]n2)s1 | inactive |
| O=C(OC1CN2CCC1CC2)c1ccc(Cl)cc1 (stereo not given) | inactive |
